The source of these data is PMC11184559, “Identification and Validation of Compounds Targeting Leishmania major Leucyl-Aminopeptidase M17” (ACS Infectious Diseases, 2024).

This series in a line: in vitro. The settings on record: human.

For `COc1ccc(Cc2c(N)nc(-c3ccccn3)nc2N)cc1` [DDD00057570], the CC50 at 48 h was more than 100 µM.

With `O=C(c1cccs1)N(CCCn1ccnc1)c1nc2ccccc2s1` [DDD00097924], the CC50 at 48 h is more than 100 µM.
